Earlier results in US20030059826A1, “SOLUBLE COM[…]” (priority 1997, published 2003).

Biological target: anti-β-endorphin monoclonal antibody 3E7
Conditions: antibody binding to its natural epitope

## Tyr-Gly-Gly-Phe-Leu-OH [leucine enkephalin]
  Kd: 7.1 nM
